In ChEMBL document CHEMBL3593202, “Design, Synthesis, and Characterization of 3-(Benzylidene)indolin-2-one Derivatives as Ligands for α-Synuclein Fibrils” (J Med Chem, 2015):

Key:
Homo sapiens [1] = species on record: Homo sapiens; assay: Selectivity ratio of Ki for amyloid beta (1 to 42) (unknown origin) to Ki for recombinant alpha-synuclein (unknown origin)
Homo sapiens [2] = species on record: Homo sapiens; assay: Selectivity ratio of Ki for human recombinant tau (243 to 375) to Ki for recombinant alpha-synuclein (unknown origin)

`CN(C)c1ccc(/C=C/C=C2\C(=O)N(Cc3ccc([N+](=O)[O-])cc3)c3ccccc32)cc1` (mixture of isomers) was tested, and the Ratio Ki (Homo sapiens [1]) was 20 and the Ratio Ki (Homo sapiens [2]) was 20.
